Assay results reported in PubChem BioAssay AID1979 (Broad Institute, 2009).
Only a part is listed here, and it is no random draw. The source made the active and inactive calls.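 How the source made its calls: active means growth inhibition above about 58% in most replicates (limit read from the data, passing the limit was not always enough); inconclusive means exactly half the replicates above a set limit; inactive means most replicates below a set limit.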

Experiment: Candida growth reduction under fluconazole – CaCi-2 strain, Alamar Blue fluorescence, primary screen (AID 1979);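 further: all wells also contain fluconazole at 8 µg/ml as a sub-toxic cotreatment; 0% = median of DMSO wells and 100% = median of geldanamycin control wells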
Conditions: C. albicans CaCi-2 (fluconazole-resistant clinical isolate) + fluconazole, 48 h, stronger effect = higher value, concentration not given here

SMILES | growth inhibition
CCc1ccc(OP(C)(=O)Nc2cccnc2)cc1 (centres undefined) | inactive: -8.36%
CC(C)(C)c1ccc(OP(C)(=O)O)cc1 | inactive: 20.5%
Nc1ccc([As](=O)(O)c2ccc(N)cc2)cc1 | inactive: -3.12%
COc1ccccc1OP(C)(=O)Nc1ccccc1Br (centres undefined) | inactive: 9.99%
C[N+]1=C2C=CC=CC=C2SC12C([N+](=O)[O-])=CC([N+](=O)[O-])=C[C-]2[N+](=O)[O-] (centres undefined) | inactive: 7.66%
CCN(/C(=N/P(=O)(N1CCOCC1)N1CCOCC1)N1CCOCC1)c1ccc(OC)cc1 | inactive: 6.64%
CP(=O)(Nc1ccc(Cl)cc1)Oc1ccc(F)cc1 (centres undefined) | inactive: 10.6%
CC(C)=N/N=C(\N)N[N+](=O)[O-] | inactive: -1.6%
CN(C)C(=O)OCCc1n(C)cc[n+]1C | inactive: -16.9%
CC1CCN(C(=O)Oc2c(Cl)cc(Cl)c3cccnc23)CC1 | inactive: 11%
Nc1ccc2c(ccc3cccnc32)n1.O=[N+]([O-])c1cc([N+](=O)[O-])c(O)c([N+](=O)[O-])c1 | inactive: 2.46%
CCOC(=O)c1ccc(NP(C)(=O)Oc2ccc(Cl)cc2)cc1 (centres undefined) | inactive: 20.5%
O=C(Nc1cc([As](=O)(O)O)ccc1O)c1ccccc1 | inactive: -2.5%
CP(=O)(OC12CC3CC(CC(C3)C1)C2)OC12CC3CC(CC(C3)C1)C2 | inactive: -21.4%
CC(C)(C)C(=O)NC(Sc1ccncn1)C(Cl)(Cl)Cl (centres undefined) | inactive: -0.483%
O=[N+]([O-])c1ncn(CCn2ncnc2[N+](=O)[O-])n1 | inactive: 3.62%
O=[N+]([O-])c1cccc(NC2=NCC(CBr)S2)c1 (centres undefined) | inactive: -3.19%
O=C(O)CNc1ccc([As](=O)(O)O)cc1 | inactive: 0.285%
CCOC(=O)Nc1ccc([As](=O)(O)O)c(O)c1 | inactive: -1.82%
CCCCOc1ccc(C(=O)NCC2(N3CCCCC3)CCCCC2)cc1OC | inactive: -10.1%
Cc1cc(SC(NC(=O)c2ccccc2)C(Cl)(Cl)Cl)nc(C(C)C)n1 (centres undefined) | inactive: -7.41%
CCOC(=O)Nc1cccc([As](=O)(O)O)c1 | inactive: 6.99%
CP(=S)(Nn1cnnc1)Oc1ccccc1 (centres undefined) | inactive: -6.16%
CP(=O)(Nc1ccccc1Br)Oc1ccccc1 (centres undefined) | inactive: 6.01%
O=[N+]([O-])c1ccc(Nc2ccc(Oc3ccc([N+](=O)[O-])cc3[N+](=O)[O-])cc2)c([N+](=O)[O-])c1 | inactive: 1.79%

SMILES | growth inhibition
Cc1cc(SC(NC=O)C(Cl)(Cl)Cl)ncn1 (centres undefined) | inactive: 6.81%
COc1ccccc1OP(C)(=O)Nc1ccccc1 (centres undefined) | inactive: 10.4%
Cc1cccc(C)c1OP(C)(=O)Nc1ccc(SC(F)(F)F)cc1 (centres undefined) | inactive: -3.03%
CP(=O)(Nc1ccc(SC(F)(F)F)cc1)Oc1ccc(Cl)cc1 (centres undefined) | inactive: -7.85%
COP1(=S)c2c(C)nn(CCC#N)c2N=C(c2ccc(F)cc2)N1C (centres undefined) | inactive: 2.18%
CP(=O)(Oc1ccccc1)OC(c1ccccc1)C(F)(F)F (centres undefined) | inactive: -21.2%
CCc1ccc(OP(C)(=O)N2CCN(c3ccc([N+](=O)[O-])cc3)CC2)cc1 (centres undefined) | inactive: -7.66%
O=C(COc1ccccc1)OC1CN2CCC1CC2 (centres undefined) | inactive: 20.4%
CP(=O)(NC(=O)Nc1ccccc1)Oc1ccccc1 (centres undefined) | inactive: 3.38%
O=C(Nc1ccncc1[N+](=O)[O-])c1ccc([N+](=O)[O-])cc1[N+](=O)[O-] | inactive: 20.6%
Cc1cc(C)cc(OP(C)(=O)Nc2ccc(SC(F)(F)F)cc2)c1 (centres undefined) | inactive: 2.91%
CCOC(=O)c1ccc(NC(=O)C(C)(CCl)SC)cc1 (centres undefined) | inactive: -1.15%
CCOC(=O)c1ccc(NP(C)(=O)Oc2ccc(OC)cc2)cc1 (centres undefined) | inactive: 10.7%
O=[N+]([O-])c1cc([N+](=O)[O-])c(O)c([N+](=O)[O-])c1.c1ccc(Oc2ccncc2)cc1 | inactive: -0.0349%
CCOP(C)(=S)SCC(=O)NC(C)C(=O)O (centres undefined) | inactive: -7.34%
O=C(OC1CN2CCC1CC2)c1cccc([N+](=O)[O-])c1 (centres undefined) | inactive: 6.86%
CP(=O)(Nc1ccccn1)Oc1ccc(Cl)cc1 (centres undefined) | inactive: -7.48%
O=C(OC1CN2CCC1CC2)C12CC3CC(CC(C3)C1)C2 (centres undefined) | inactive: -13.3%
CCN(CC)CCCOC(=O)C(O)(c1ccccc1)c1ccccc1 | inactive: -5.2%
Cc1cc(=O)[nH]c(N[N+](=O)[O-])n1 | inactive: -1.67%
Cc1c2c(nc3ccccc13)SC(C(Cl)Cl)C2 (centres undefined) | inactive: -30.5%
COc1cc(I)ccc1[As](=O)(O)O | inactive: 3.39%
COc1ccc(N/C(=N/P(=O)(N2CCOCC2)N2CCOCC2)N2CCOCC2)cc1 | inactive: 0.773%
C[As](=O)(O)c1cccc(C(=O)O)c1 | inactive: -5.31%
O=[As](O)(c1ccc(O)cc1)c1ccccc1O | inactive: -27%

SMILES | growth inhibition
O=[N+]([O-])c1cc([N+](=O)[O-])c(Nc2cccnc2)c([N+](=O)[O-])c1 | inactive: -0.948%
Cc1ccc2nc3c(c(C)c2c1)CC(C(Cl)Cl)S3 (centres undefined) | inactive: -15.8%
O=[N+]([O-])c1ccc2c(c1)C=Nc1ccccc1O2 | inactive: -26.8%
CC(C)(C)c1ccc(OP(C)(=O)Nc2ccc(SC(F)(F)F)cc2)cc1 (centres undefined) | inactive: 7.35%
Cc1ccc(OP(=O)(Nc2ccc([N+](=O)[O-])cn2)Oc2ccc(C)cc2)cc1 | inactive: 3.12%
Cc1cccc(C)c1OP(C)(N)=O (centres undefined) | inactive: 1.74%
COc1ccccc1OP(C)(=O)Nc1ccc(C)cc1 (centres undefined) | inactive: 3.26%
CC(C)c1ccc(OP(=O)(Nc2ccccn2)Oc2ccccc2F)cc1 (centres undefined) | inactive: -42.9%
Cc1ccc(NP(C)(=O)Oc2ccccc2)c(C)c1 (centres undefined) | inactive: 0.707%
CCOC(=O)c1ccc(NP(C)(=O)Oc2ccccc2)cc1 (centres undefined) | inactive: -7.68%
ClCCSc1nnc(-c2cccnc2)o1 | inactive: 2.55%
Cc1cc(C)cc(OP(C)(N)=O)c1 (centres undefined) | inactive: -5.58%
CCN(CC)C(=S)SC(NC=O)C(Cl)(Cl)Cl (centres undefined) | inactive: -0.921%
COc1ccccc1OP(C)(=O)Nc1cc(Cl)ccc1C (centres undefined) | inactive: -8.41%
CC(C)NC(=O)NP(=O)(Oc1ccccc1)Oc1ccccc1 | inactive: -15.4%
O=[N+]([O-])c1cc([N+](=O)[O-])c(-c2ccn[nH]2)s1 | inactive: 39.5%
COc1ccc(OP(C)(=O)Nc2cccc(F)c2)cc1 (centres undefined) | inactive: 0.595%
CS(=O)(=O)c1cc([N+](=O)[O-])c2no[n+]([O-])c2c1 | inactive: 6.4%
CCOP1(=S)c2c(C)nn(CCC#N)c2N=C(c2ccccc2F)N1C (centres undefined) | inactive: -0.376%
O=C(O)c1cccc(Nc2c([N+](=O)[O-])cc([N+](=O)[O-])cc2[N+](=O)[O-])c1 | inactive: -1.47%
O=P(Nc1nccs1)(c1ccccc1)c1nc2ccccc2s1 (centres undefined) | inactive: -4.34%
O=P(Nc1nccs1)(Oc1ccccc1)Oc1ccccc1 | inactive: 9.94%
Nc1ccccc1[As](=O)(O)c1ccccc1 | inactive: 12.2%
O=C(O)COc1ccc([As](=O)(O)O)cc1[N+](=O)[O-] | inactive: 4.27%
NC(=O)Nc1ccc([As](=O)(O)O)cc1 | inactive: -12%

SMILES | growth inhibition
CN(C)C(=O)c1cc([N+](=O)[O-])cc2c1-c1c(cc([N+](=O)[O-])cc1[N+](=O)[O-])C2=O | inactive: 21.8%
O=[N+]([O-])c1ccc2c(c1)nnn2O | inactive: 6.02%
CC1=NCCc2c1[nH]c1ccccc21.O=[N+]([O-])c1cc([N+](=O)[O-])c(O)c([N+](=O)[O-])c1 | inactive: 14.4%
N#CCCN(C(=O)COC(=O)C(O)(c1ccccc1)c1ccccc1)c1ccc(F)cc1 | inactive: 8.26%
CCOP1(=S)c2c(C)nn(CCC#N)c2N=C(c2ccc(F)cc2)N1C (centres undefined) | inactive: -1.95%
CN(C(=O)Cc1ccccc1)[C@@H]1CC[C@]2(CCCO2)C[C@H]1N1CCCC1 | inactive: -14%
COc1cc(C(=O)NCC2(N3CCOCC3)CCCCC2)cc(Cl)c1OC(C)C | inactive: -0.886%
O=[As](O)(O)c1cccnc1 | inactive: -13.1%
CS(=O)(=O)c1ccc(Cl)c(NC(=O)COC(=O)C(O)(c2ccccc2)c2ccccc2)c1 | inactive: -4.07%
COc1ccccc1OP(C)(=O)Nc1cccc(Br)c1 (centres undefined) | inactive: -18%
O=C(OC1CN2CCC1CC2)c1ccc(Cl)cc1 (centres undefined) | inactive: -4.88%
CCOC(=O)c1ccc(NP(C)(=O)Oc2cc(C)cc(C)c2)cc1 (centres undefined) | inactive: -15%
O=[As](O)(c1cccc(O)c1)c1cccc(O)c1 | inactive: 5.99%
Cc1cccc(OCC(=O)OC2CN3CCC2CC3)c1 (centres undefined) | inactive: 7.53%
Cc1cc(C)cc(OP(C)(=O)Nc2ccc(C)cc2C)c1 (centres undefined) | inactive: 2.57%
CCCOP(=S)(Nc1nc(N)cc(=O)[nH]1)OCCC | inactive: 4.99%
Cc1ccc(C)c(NP(C)(=O)Oc2ccccc2)c1 (centres undefined) | inactive: -2.64%
CP(=O)(Nc1cccc(Br)c1)Oc1ccccc1 (centres undefined) | inactive: -16.7%
Cc1cc(C)cc(OP(C)(=O)Nc2ccccn2)c1 (centres undefined) | inactive: 33.2%
Nc1cccc2c([As](=O)(O)O)cccc12 | inactive: 2.25%
Cc1ccc(NCCc2c([N+](=O)[O-])cc([N+](=O)[O-])cc2[N+](=O)[O-])cc1 | inactive: 46.5%
CCOP(=O)(Nc1cccc2ccccc12)OCC | inactive: 16.2%
CN(CCCl)Cc1cc(Cl)c(NC2=NCCN2)c(Cl)c1 | inactive: -13.6%
CCOP(=O)(Nc1ccc(C)cn1)OCC | inactive: -6.55%
